{"sequences": {"note": "The chains behind the UniProt entries cited, without tags or fusion partners. Residues count along the entry.", "UniProt P00746, 26-253": "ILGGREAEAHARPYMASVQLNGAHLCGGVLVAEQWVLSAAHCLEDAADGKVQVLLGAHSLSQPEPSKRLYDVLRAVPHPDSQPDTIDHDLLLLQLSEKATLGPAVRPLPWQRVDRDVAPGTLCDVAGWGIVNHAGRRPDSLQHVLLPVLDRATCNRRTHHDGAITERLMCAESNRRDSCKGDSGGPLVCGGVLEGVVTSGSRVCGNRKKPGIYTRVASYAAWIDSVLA"}, "source": "patent US20230022157A1", "about": "(Achillion Pharmaceuticals, Inc., priority 2018, published 2023)", "molecular_target": "T1, Human Factor D (Homo sapiens, UniProt P00746)", "T1 construct": "purified from human serum; purchased Complement Technology, Inc; host or cells: human serum (natural protein, not recombinant)", "test": "Human Factor D Assay", "assay_type": "biochemical", "experimental": "Human Factor D (purified from human serum, Complement Technology, Inc.) at 80 nM final concentration is incubated with test compound at various concentrations for 5 min at room temperature in 50 mM Tris, 1M NaCl, pH 7.5. A synthetic substrate Z-L-Lys-SBzl and DTNB (Ellman's reagent) are added to final concentrations of 100 μM each. […] IC50 values are calculated by nonlinear regression of complement Factor D reaction rates as a function of test compound concentration."}
{"smiles": "CC(=O)c1nn(CC(=O)N2C[C@H](F)C[C@H]2CNc2cccc(Br)n2)c2ccc(-c3cnc(C)nc3)cc12", "note": "[Compound 40, 2-(3-acetyl-5-(2-methylpyrimidin-5-yl)-1H-indazol-1-yl)-1-((2S,4R)-2-(((6-bromopyridin-2-yl)amino)methyl)-4-fluoropyrrolidin-1-yl)ethan-1-one]", "values": [{"measurement": "IC50", "result": "1 to 10", "unit": "µM"}]}
